Reference: patent US10618914B2 (UNIVERSITY OF PITTSBURGH—OF THE COMMONWEALTH SYSTEM OF …, priority 2015, dated 2020)
Like-named read-outs stand apart in the source and are kept apart here. Blank lines part the entries; values can stand above or below the compound they belong to.

Experiments:
STAT3 = experiment: HCS STAT3 assay; assay type: cell-based
STAT1 = STAT1 assay (selectivity counter-screen); assay type: cell-based; conditions: Table 5; * average of 2 experiments
[1] = Table 1, read-out: STAT3 (mean IC50)
[2] = Table 4, read-out: STAT3 IC50 (converted)
[3] = Table 5, * average of 2 experiments, read-out: STAT3 IC50 (converted)
[4] = Table 2, read-out: STAT3 (IC50)

- IC50 (STAT3; [1]): 35.9 µM
Compound: COc1ccc(C2=Nn3c(nnc3-c3[nH]nc4c3CCC4)SC2)cc1

Compound: Clc1ccc(C2=Nn3c(nnc3-c3cc(-c4ccccc4)n[nH]3)SC2)cc1Cl [1b]
- IC50 (STAT3; [2]): 31.2 µM

Compound: Clc1ccc(C2=Nn3c(nnc3-c3[nH]nc4c3CCC4)SC2)cc1 [2a]
- IC50 (STAT3; [2]): 26.8 ± 22.3 µM

Compound: Clc1cccc(C2=Nn3c(nnc3-c3[nH]nc4c3CCC4)SC2)c1 [6a]
- IC50 (STAT3; [2]): 21.2 ± 5.9 µM

Compound: Clc1ccc(C2=Nn3c(nnc3-c3[nH]nc4c3CCC4)SC2)s1 [10a]
- IC50 (STAT3; [2]): 11 ± 5.5 µM

Compound: COc1ccc(C2=Nn3c(nnc3-c3cc(-c4ccc(Cl)cc4)n[nH]3)SC2C)cc1 (stereo not shown) [Cmpd 24]
- IC50 (STAT1): 29.5 µM

- IC50 (STAT3; [3]): 2.2 ± 1.2 µM
Compound: COc1ccc(C2=Nn3c(nnc3-c3[nH]nc4c3CCC4)SC2C(C)C)cc1 (stereo not shown) [Cmpd 26]

- IC50 (STAT3; [3]): 5.1 µM
Compound: CCC(C)C1Sc2nnc(-c3cc(-c4ccccc4)n[nH]3)n2N=C1c1ccc(OC)cc1 (stereo not shown) [Cmpd 28]

- IC50 (STAT3; [1]): 8.47 µM
- IC50 (STAT3; [4]): 8.5 µM
Compound: COc1ccc(C2=Nn3c(nnc3-c3[nH]nc4c3CCC4)SC2C(C)C)cc1 (stereo not shown) [UPCDC10318]

Compound: Clc1ccc(C2=Nn3c(nnc3-c3[nH]nc4c3CCC4)SC2)cc1 [UPCDC87346005]
- IC50 (STAT3; [1]): 40 µM

- IC50 (STAT3; [4]): 13.6 µM
Compound: COc1ccc(C2=Nn3c(nnc3-c3cc(-c4ccccc4)n[nH]3)SC2CC(C)C)cc1 (stereo not shown) [compound 10307]

- IC50 (STAT3; [4]): 11.7 µM
Compound: COc1ccc(C2=Nn3c(nnc3-c3cc(-c4ccccc4)n[nH]3)SC2CCN)cc1 (stereo not shown) [compound 10371]
